Assays:
Mu-type opioid receptor [1] = biological target: Mu-type opioid receptor (Cavia porcellus, UniProt P97266)
[2] = biological target: Kappa-type opioid receptor (Homo sapiens, UniProt P41145)
[3] = biological target: Delta-type opioid receptor (Homo sapiens, UniProt P41143)
[4] = biological target: Delta-type opioid receptor (Sus scrofa, UniProt P79291)
[5] = biological target: Kappa-type opioid receptor (Cavia porcellus, UniProt P41144)
Mu-type opioid receptor [6] = biological target: Mu-type opioid receptor (Homo sapiens, UniProt P35372)

The chains behind the UniProt entries cited, without tags or fusion partners. Where a name states a change or a piece, a line headed by the entry shows the natural chain unless it says otherwise.
UniProt P97266, whole entry: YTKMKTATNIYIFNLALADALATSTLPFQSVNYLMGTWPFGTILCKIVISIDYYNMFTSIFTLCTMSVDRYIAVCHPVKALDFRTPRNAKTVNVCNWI
UniProt P41145: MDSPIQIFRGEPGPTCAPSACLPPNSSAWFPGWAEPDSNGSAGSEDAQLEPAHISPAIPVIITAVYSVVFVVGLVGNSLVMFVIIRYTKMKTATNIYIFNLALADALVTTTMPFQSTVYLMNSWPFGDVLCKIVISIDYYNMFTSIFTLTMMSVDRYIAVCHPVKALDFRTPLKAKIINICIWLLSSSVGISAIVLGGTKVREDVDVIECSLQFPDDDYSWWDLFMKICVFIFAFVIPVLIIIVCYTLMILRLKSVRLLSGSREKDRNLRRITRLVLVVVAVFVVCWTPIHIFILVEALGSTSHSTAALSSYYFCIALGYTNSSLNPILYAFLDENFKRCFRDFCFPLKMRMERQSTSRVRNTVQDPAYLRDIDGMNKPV
UniProt P41143, whole entry: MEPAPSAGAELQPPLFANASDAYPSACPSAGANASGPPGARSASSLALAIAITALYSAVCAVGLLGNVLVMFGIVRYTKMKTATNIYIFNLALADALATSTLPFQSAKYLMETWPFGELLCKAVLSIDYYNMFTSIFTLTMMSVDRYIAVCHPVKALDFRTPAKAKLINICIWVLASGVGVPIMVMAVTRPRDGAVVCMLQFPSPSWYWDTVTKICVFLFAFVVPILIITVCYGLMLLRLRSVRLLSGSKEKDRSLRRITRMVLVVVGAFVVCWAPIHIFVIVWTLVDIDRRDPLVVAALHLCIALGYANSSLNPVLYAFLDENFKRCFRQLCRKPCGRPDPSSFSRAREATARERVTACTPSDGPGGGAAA
UniProt P79291, whole entry: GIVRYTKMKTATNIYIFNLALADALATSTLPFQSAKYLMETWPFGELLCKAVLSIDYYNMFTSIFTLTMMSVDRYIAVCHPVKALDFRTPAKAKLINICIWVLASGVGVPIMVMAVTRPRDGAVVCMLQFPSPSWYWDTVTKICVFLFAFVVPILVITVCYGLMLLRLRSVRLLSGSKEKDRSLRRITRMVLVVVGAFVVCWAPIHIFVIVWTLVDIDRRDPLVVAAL
UniProt P41144: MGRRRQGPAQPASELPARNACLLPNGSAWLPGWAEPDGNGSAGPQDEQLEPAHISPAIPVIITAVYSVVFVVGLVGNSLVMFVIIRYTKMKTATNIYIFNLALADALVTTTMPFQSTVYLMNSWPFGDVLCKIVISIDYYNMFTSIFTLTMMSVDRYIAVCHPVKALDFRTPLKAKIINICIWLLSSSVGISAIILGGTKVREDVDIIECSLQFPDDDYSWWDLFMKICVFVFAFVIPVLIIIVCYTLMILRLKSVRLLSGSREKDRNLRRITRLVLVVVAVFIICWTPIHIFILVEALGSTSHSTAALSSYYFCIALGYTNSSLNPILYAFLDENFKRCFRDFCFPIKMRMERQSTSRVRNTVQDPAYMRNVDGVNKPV
UniProt P35372, whole entry: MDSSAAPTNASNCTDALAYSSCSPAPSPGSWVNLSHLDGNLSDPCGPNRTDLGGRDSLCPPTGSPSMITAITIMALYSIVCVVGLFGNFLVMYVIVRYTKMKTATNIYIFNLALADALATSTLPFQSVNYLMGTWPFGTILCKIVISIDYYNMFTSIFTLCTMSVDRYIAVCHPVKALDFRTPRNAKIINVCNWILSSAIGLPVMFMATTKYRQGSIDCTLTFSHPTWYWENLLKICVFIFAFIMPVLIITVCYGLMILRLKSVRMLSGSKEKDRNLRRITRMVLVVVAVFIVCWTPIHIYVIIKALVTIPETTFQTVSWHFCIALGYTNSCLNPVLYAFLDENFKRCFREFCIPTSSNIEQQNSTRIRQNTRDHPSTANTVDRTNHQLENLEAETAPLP

N[C@@H](Cc1ccc(O)cc1)C(=O)N1Cc2ccccc2C[C@H]1CN[C@@H](Cc1ccccc1)C(=O)N[C@@H](Cc1ccccc1)C(=O)O [TIPP-PSI]
Ki (Mu-type opioid receptor [1]): > 10 µM
Ki [2]: > 10 µM
Ki [3]: 0.001 µM
Ki [4]: 0.0006 µM
Ki [5]: > 10 µM
Ki (Mu-type opioid receptor [6]): > 10 µM

From BindingDB's records for PubMed 9686407 (Sri International, 1998)
